These results are taken from publication PMC2873203 (Journal of labelled compounds & radiopharmaceuticals, 2010).

By UniProt entry, the sequences of proteins in these tests, tags left out. Residues count along the entry.
UniProt Q9WTR4, 1-597: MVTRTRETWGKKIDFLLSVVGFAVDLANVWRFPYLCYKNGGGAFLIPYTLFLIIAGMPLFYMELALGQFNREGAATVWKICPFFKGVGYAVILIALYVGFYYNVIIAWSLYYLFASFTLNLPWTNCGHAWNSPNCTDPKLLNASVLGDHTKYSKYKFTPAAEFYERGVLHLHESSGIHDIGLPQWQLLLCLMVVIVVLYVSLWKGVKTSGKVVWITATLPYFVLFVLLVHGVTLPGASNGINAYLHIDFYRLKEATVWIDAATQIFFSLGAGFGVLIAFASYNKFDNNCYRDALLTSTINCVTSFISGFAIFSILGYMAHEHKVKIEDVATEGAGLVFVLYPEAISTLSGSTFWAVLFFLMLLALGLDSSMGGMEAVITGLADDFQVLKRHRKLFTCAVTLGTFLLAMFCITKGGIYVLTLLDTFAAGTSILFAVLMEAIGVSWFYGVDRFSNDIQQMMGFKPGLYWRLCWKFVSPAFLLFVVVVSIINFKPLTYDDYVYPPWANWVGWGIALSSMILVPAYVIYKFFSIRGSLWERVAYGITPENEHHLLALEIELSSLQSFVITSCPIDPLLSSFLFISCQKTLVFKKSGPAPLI

This test addresses norepinephrine transporter (NET) (Rattus norvegicus, UniProt Q9WTR4). Kind of test: 3H-nisoxetine radioligand competition in rat brain membrane homogenates. The test is classed as binding. Background: Displacement assays read how much labelled ligand stays bound in the presence of the test substance.

One may read the Ki as a dissociation constant, usually derived from enzyme kinetics or from competition with a known ligand. The compound `CNCCC(Oc1ccccc1OC)c1ccccc1` (stereo not shown) [compound 1, nisoxetine] returned a Ki of 8.02 nM.
